The target in the assay is T1, VMAT2 (Rattus norvegicus, UniProt Q01827).
T1 construct: from tissue; host or cells: rat forebrain membranes
The assay is described as follows: Inhibition of [3H]-DHTBZ binding to rat forebrain membranes.

By UniProt entry, the sequences of proteins in these tests, tags left out.
UniProt Q01827, whole entry: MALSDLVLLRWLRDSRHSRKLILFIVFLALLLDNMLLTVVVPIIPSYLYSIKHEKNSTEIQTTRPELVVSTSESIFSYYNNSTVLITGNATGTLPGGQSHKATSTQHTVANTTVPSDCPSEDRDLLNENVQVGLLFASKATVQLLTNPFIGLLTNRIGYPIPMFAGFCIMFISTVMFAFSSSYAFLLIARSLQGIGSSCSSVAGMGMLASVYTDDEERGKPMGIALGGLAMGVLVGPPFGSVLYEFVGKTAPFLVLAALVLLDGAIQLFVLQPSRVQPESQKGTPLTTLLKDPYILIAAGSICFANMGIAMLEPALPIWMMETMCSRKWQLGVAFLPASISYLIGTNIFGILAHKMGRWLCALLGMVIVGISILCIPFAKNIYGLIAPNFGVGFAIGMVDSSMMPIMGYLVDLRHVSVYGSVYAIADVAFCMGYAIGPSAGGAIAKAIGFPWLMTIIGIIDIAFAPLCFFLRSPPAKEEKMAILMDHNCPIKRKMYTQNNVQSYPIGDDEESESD

Each structure is given as a SMILES string.

As for `COc1cc2c(cc1OC)[C@H]1C[C@@H](O)[C@H](CC(C)C)CN1CC2` [R,R,R-DHTBZ, (2R,3R,11bR)-3-isobutyl-9,10-dimethoxy-1,3,4,6,7,11b-hexahydro-2H-pyrido[2,1-a]isoquinolin-2-ol], the “VMAT2 inhibition, in words” value is recorded as “most potent inhibitor of VMAT2”.
Turning to `COc1cc2c(cc1OC)[C@@H]1C[C@@H](O)[C@@H](CC(C)C)CN1CC2` [R,S,S-DHTBZ], the “VMAT2 inhibition, in words” value was “poor VMAT2 inhibitors” and the “affinity, times weaker than R,R,R-DHTBZ” value is listed as ~160 times.
Turning to `COc1cc2c(cc1OC)[C@@H]1C[C@H](O)[C@@H](CC(C)C)CN1CC2` [S,S,S-DHTBZ], the “VMAT2 inhibition, in words” value is recorded as “poor VMAT2 inhibitors” and the “affinity, times weaker than R,R,R-DHTBZ” value is listed as “approximately 60 times”.

(Values after US10857137B2, “Methods for the administration of certain VMAT2 inhibitors” (Neurocrine Biosciences, Inc., priority 2017, dated 2020).)
